Marks after values point to notes of the source that are not given here.

The target in this assay is T1, glucocorticoid receptors (Homo sapiens, UniProt P04150).
T1 construct: host or cells: Human HeLa cells
T1 sequence (P04150 1-777): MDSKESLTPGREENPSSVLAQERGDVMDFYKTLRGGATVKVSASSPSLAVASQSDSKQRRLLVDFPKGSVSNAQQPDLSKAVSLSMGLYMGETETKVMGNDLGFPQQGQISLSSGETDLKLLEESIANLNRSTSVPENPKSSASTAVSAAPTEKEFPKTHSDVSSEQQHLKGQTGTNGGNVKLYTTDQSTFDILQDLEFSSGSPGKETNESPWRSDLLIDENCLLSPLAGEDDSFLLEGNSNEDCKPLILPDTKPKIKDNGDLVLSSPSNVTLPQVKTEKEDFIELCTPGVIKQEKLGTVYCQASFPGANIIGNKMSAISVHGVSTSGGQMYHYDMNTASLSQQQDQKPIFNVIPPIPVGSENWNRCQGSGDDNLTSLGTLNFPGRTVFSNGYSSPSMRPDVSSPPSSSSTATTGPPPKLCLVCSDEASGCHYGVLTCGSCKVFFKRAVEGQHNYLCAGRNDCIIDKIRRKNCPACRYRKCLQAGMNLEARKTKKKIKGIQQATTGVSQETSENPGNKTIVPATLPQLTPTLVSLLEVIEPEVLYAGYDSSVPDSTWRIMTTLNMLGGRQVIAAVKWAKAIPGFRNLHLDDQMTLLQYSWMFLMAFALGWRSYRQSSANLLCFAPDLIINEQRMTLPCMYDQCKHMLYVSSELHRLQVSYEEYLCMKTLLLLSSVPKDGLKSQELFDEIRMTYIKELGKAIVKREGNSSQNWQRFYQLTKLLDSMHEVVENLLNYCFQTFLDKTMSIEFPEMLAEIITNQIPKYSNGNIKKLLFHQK
Briefly: Glucocorticoid receptor binding assay ([3H]dexamethasone radioligand). To be noted: % inhibition at 10 nM, HeLa cells transfected with glucocorticoid receptors. As to the method: The steroid receptor binding assay were performed by MDS Pharma Services at their Taipei (Taiwan) pharmacology laboratory.
The activity of test compounds on glucocorticoid receptor was assessed using radioligand binding assays. […] Free [^3H]dexamethasone was removed from the medium by centrifugation and concentration of receptor bound ligand was determined in the supernatant by liquid scintillation counting.
The % inhibition was evaluated using a single concentration of test compound and the corresponding radiolabeled ligand. Results are presented as the percent inhibition of specific binding. The values are average of duplicate determinations for each concentration.

Consider `CCC(=O)O[C@]1(C(=O)SCF)[C@H](C)C[C@H]2[C@@H]3C[C@H](F)C4=CC(=O)C=C[C@]4(C)[C@@]3(F)[C@@H](O)C[C@@]21C` [Fluticasone propionate, (S)-fluoromethyl 6α,9α-difluoro-11β-hydroxy-16α-methyl-17α-propionyloxy-3-oxoandrosta-1,4-diene-17β-carbothioate, reference compound], for which the “Glucocorticoid receptor binding % inhibition” value is reported as 88^b %.

Values taken from patent US8785425B2, “11β-hydroxyandrosta-4-ene-3-ones” (Sun Pharma Advanced Research Company Ltd., priority 2006, dated 2014).
